The values that follow come from PubChem BioAssay AID602329 (Broad Institute, 2012).

The chains behind the UniProt entries cited, without tags or fusion partners.
UniProt Q92698, whole entry: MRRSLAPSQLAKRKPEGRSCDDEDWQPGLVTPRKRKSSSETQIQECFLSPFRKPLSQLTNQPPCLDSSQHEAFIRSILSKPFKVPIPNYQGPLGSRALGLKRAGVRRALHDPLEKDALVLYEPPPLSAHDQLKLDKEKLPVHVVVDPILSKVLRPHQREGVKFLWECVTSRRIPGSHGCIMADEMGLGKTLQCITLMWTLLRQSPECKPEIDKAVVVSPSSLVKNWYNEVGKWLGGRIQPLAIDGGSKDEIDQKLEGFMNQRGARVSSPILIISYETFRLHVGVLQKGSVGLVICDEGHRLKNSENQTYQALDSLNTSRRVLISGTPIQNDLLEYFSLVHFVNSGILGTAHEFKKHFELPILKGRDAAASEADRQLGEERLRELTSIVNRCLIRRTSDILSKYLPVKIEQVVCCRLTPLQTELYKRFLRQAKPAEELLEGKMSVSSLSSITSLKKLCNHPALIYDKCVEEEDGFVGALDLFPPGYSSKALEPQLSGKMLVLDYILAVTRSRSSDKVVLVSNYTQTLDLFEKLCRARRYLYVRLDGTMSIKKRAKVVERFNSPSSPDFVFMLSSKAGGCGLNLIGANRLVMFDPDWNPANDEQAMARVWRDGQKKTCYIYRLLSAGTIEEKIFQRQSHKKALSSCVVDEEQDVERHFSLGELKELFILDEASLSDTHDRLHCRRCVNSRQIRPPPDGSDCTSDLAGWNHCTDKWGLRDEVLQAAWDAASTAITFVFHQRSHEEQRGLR

The entries are a selection whose mix differs from that of the whole data set. Activity calls are given as the source filed them.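 The calls were made as follows: active = mean normalized replicate activity at least 40 and at least half of replicates scoring 40 or more; inconclusive = only one of the two criteria met; inactive = mean below 40 and under half of replicates reaching 40.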

Usually inhibition stands for the change of the read-out against control, counted positive when it falls.

The target of this test is DNA repair and recombination protein RAD54-like (Homo sapiens) (UniProt Q92698). Description: RAD54 Holliday junction migration blockers – biochemical, fluorescence, single point, primary screen (AID 602329).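 Also: 0% = median of neutral control wells and 100% = median of positive control wells; inhibitors cause a drop in the FAM fluorescence signal.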 Particulars: RAD54 Holliday junction branch migration, FAM/BHQ fluorescence; at 10.4 µM; stronger effect = higher value.
`CCC(=O)N(c1ccccc1)C1(COC)CCN(CCc2cccs2)CC1`: the inhibition is inactive: -8.26%. In the case of `CCC(=O)N(c1ccccc1)C1(COC)CCN(CCn2nnn(CC)c2=O)CC1`, the inhibition is inactive: -12.8%.
